Measurements reported in ChEMBL document CHEMBL2177083, “Enhanced in vitro biological activity of synthetic 2-(2-pyridyl) ethyl isothiocyanate compared to natural 4-(methylsulfinyl) butyl isothiocyanate” (J Med Chem, 2012).

What was measured:
Assay type in all cases: functional
PC-3 [1] = assay: Increase in nonsmall cell lung cancer related gene expression in human PC3 cells at 10 uM incubated for 8 hrs by Affymetrix human exon array relative to untreated control
PNT1A [2] = assay: Increase in melanogenesis related gene expression in human PNT1A cells at 10 uM incubated for 8 hrs by Affymetrix human exon array relative to untreated control
PNT1A [3] = assay: Increase in colorectal cancer related gene expression in human PNT1A cells at 10 uM incubated for 8 hrs by Affymetrix human exon array relative to untreated control
PC-3 [4] = assay: Increase in pancreatic cancer related gene expression in human PC3 cells at 10 uM incubated for 8 hrs by Affymetrix human exon array relative to untreated control
PNT1A [5] = assay: Increase in cytokine-cytokine receptor interaction related gene expression in human PNT1A cells at 10 uM incubated for 8 hrs by Affymetrix human exon array relative to untreated control

Compound: S=C=NCCc1ccccn1
- fold change (FC) (PC-3 [1]): 1.7
- fold change (FC) (PNT1A [2]): 2.2
- fold change (FC) (PNT1A [3]): 2.2
- fold change (FC) (PC-3 [4]): 2.2
- fold change (FC) (PNT1A [5]): 1.7
